Here are results for one substance from PMC12796744.

The target of this assay is nucleosome containing the histone variant H2A.Z (UniProt P0C0S5). As to the kind of experiment: multiplex bead-based nucleosome binding assay (Luminex xMAP); biotinylated mononucleosomes on spectrally distinct streptavidin MagPlex beads, pooled panel; 0 to 5 nM GST-tagged HMGN protein in solution; 50 mM NaCl, 25 mM Hepes pH 7.5, 1 mM DTT, 0.5% BSA, 0.1% Tween-20; room temperature, 2 h; detected with anti-GST and phycoerythrin secondary antibody; relative binding taken at 0.625 nM protein.

In the case of “GST-HMGN2 (from UniProt P05204 1-90) (natural protein)”, the fold binding over the canonical nucleosome was 2 fold.
